For orientation: inhibition means the change of the read-out against control, counted positive when it falls.

The list shows a part of the results, in another mix than the full data. Calls of active or inactive are those of the source.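 Rule for the calls: active = inhibition of yeast growth at or above a set limit in either of two repeat tests at 20 µM; inactive = the rest.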

The test can be described thus: tim10-1 ts yeast growth inhibition, retested – single concentration, luminescence, S. cerevisiae, confirmation (AID 463213).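 Note: tim10-1 mutant grown at permissive 25 °C to find synthetic lethal compounds; 0% = DMSO yeast wells and 100% = medium wells without yeast.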 Conditions: S. cerevisiae tim10-1 ts strain growth, BacTiter-Glo, 24 h; at 20 µM; hits give high values.
Regarding `O=[N+]([O-])c1cc([N+](=O)[O-])c(Nc2ccccn2)c([N+](=O)[O-])c1`, the inhibition was active: 58.9%.

In the case of `CP(=O)(OC12CC3CC(CC(C3)C1)C2)OC12CC3CC(CC(C3)C1)C2`, the inhibition was active: 35.4%.

Consider `CCCCCOc1ccc(NP(C)(=O)Oc2ccc(Cl)cc2Cl)cc1` (stereo not given), for which the inhibition is inactive: 21.5%.

Consider `O=[N+]([O-])c1cc([N+](=O)[O-])c(Nc2cccnc2)c([N+](=O)[O-])c1`, for which the inhibition is active: 50.2%.

Consider `CC(C)(C)c1ccc(OP(C)(=O)Nc2ccc(SC(F)(F)F)cc2)cc1` (stereo not given), for which the inhibition was inactive: 19.8%.

For the origin of these results see PubChem BioAssay AID463213 (Sanford-Burnham Center for Chemical Genomics, 2010).
